Read-outs that look alike come from different tables or passages of the source.

Amino acid sequences for entries named in this document (tags omitted). Residues count along the entry.
UniProt P30536, whole entry: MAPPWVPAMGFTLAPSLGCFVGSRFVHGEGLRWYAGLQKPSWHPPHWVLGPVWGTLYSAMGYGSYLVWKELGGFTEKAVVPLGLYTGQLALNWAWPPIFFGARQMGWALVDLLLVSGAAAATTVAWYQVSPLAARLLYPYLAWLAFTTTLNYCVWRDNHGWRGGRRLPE
UniProt P30536, 2-169 limits assumed: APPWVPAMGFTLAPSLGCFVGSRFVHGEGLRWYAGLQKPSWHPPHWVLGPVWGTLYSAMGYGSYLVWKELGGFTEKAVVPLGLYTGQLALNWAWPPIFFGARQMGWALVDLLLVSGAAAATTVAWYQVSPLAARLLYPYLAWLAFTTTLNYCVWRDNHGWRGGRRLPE

Results on 1 compound are retold here after paper PMC4210126 (ACS Chemical Neuroscience, 2014).

Test [1] has as its target T1, human HAB TSPO (Homo sapiens, UniProt P30536). Briefly: Receptor binding assay in human leukocyte homogenates with [^3H]1, HAB.
For test [2], the target named is T2, human LAB TSPO (Homo sapiens, UniProt P30536). Briefly: Receptor binding assay in human leukocyte homogenates with [^3H]1, LAB.
The target in test [3] is T2, human LAB TSPO. It counts as binding.
The target in test [4] is T1, human HAB TSPO. The settings on record: read-out: mean KD; self-displacement assay; human leukocyte homogenates; cited from earlier work.

In the case of `CCC(C)N(C)C(=O)c1cc2ccccc2c(-c2ccccc2Cl)n1` (stereo not shown) [Ligand 1], the results for the inhibition constant Ki at human HAB TSPO [1], at human LAB TSPO [2] and on human LAB TSPO [3] were 4.06 ± 1.2 nM, 3.94 ± 1.2 nM and 4.16 ± 0.89 nM, respectively. The dissociation constant Kd (in general, the constant that tells how readily two partners part at equilibrium) on human HAB TSPO [4] was 4.7 nM.
